Our source for the IC50 values is US20210038737A1 (OHIO STATE INNOVATION FOUNDATION, published 2021).

Usually IC50 stands for the concentration at which inhibition is half-maximal.

This assay addresses CAL PDZ domain (CALP5-His) (UniProt Q9HD26 288-371). As to the kind of experiment: FP competition, condition A: probe peptide 26 (50 nM) with 100 nM CALP5-His; competitor titrated.

B1: peptide 1: Ac-Arg-Arg-Phe-Trp-Gln-Cys-Thr-Arg-Val-OH (peptide)
peptide: RRFWQCTRV
modifications: N-terminal acetyl (Ac)
notes: Synthetic peptide; also called Compd 1; Compound 1
B1 had an IC50 of 4.52 µM.
